# Measurements taken from PubChem BioAssay AID602346 (Broad Institute, 2012).
# The entries are a selection whose mix differs from that of the whole data set. Activity calls are given as the source filed them. Cut-off read from the data, not from the text of the source: active = inhibition above about 50% (passing the limit was not always enough); inconclusive = no clear call, values can overlap the other calls; inactive = below about 31%.
# Experiment: blockers of Vif multimerization in cells – imaging, HEK293T, single point, primary screen (AID 602346)
# Settings: Vif self-association by quenched fluorescence, 24 h, at 7.49 µM, active compounds read high
row,SMILES,inhibition
1,Cc1nn(-c2ccccc2)c2c1P(=O)(N1CCOCC1)N(C)C(c1ccccc1)=N2 (stereo not given),inactive: 0.12%
2,Cc1ccc(C(=O)OC2CN3CCC2CC3)cc1 (stereo not given),inactive: 16%
3,CC1CCC(C(C)C)C(OP(=O)(Nc2ccccn2)c2ccccc2)C1 (stereo not given),inactive: -11.1%
4,CN(C)C1(CNC(=O)c2ccc(S(C)(=O)=O)cc2)CCCCC1,inactive: 4.16%
5,O=C(/C=C/c1ccccc1)OC1CN2CCC1CC2 (stereo not given),inactive: -17%
6,CCCC1OP(=O)(Nc2ccccc2)OCC1CC (stereo not given),inactive: 10.9%
7,O=P1(Nc2ncccn2)COc2ccccc2OC1,inactive: 2.29%
8,Nc1cccc([As](=O)(O)c2ccccc2)c1,inactive: 1.82%
9,NS(=O)(=O)c1cccc(NC(=O)COC(=O)C(O)(c2ccccc2)c2ccccc2)c1,inactive: 0.6%
10,O=P1(Nc2ccc(Br)cn2)COc2ccccc2OC1,inactive: -13.3%
11,O=[As](O)(c1cccs1)c1cccs1,inactive: -0.0285%
12,Cc1ccc(OCC(=O)OC2CN3CCC2CC3)cc1 (stereo not given),inactive: -0.832%
13,CCC1=CC2Cc3nc4ccc(Cl)cc4c(N)c3C(C1)C2 (stereo not given),inactive: -0.395%
14,O=P1(Nc2ccccn2)COc2ccccc2OC1,inactive: -7.04%
15,CCOP(=O)(NC(=NC(C)c1ccccc1)NC(C)c1ccccc1)OCC (stereo not given),inactive: -10.8%
16,CN(CCCl)Cc1cc(Cl)c(NC2=NCCN2)c(Cl)c1,inactive: -4.38%
17,CCOP(=O)(Nc1ccc(C)cn1)OCC,inactive: 20.2%
18,Clc1n[nH]nc1-c1nn[nH][15n]1,inactive: -14.5%
19,O=P1(N(CCCl)CCCl)NCCC(C(F)(F)F)O1 (stereo not given),inactive: 1.41%
20,CC(C)(C)C(=O)NC(Sc1ncccn1)C(Cl)(Cl)Cl (stereo not given),inactive: -1.77%
21,COc1ccccc1CNC(=O)COC(=O)C(O)(c1ccccc1)c1ccccc1,inactive: 13.1%
22,CN(C(=O)Cc1ccc(Cl)c(Cl)c1)[C@@H]1CCCC[C@H]1N1CCCC1,inactive: -3.56%
23,CC(C)/C=N\N=C(\N)N[N+](=O)[O-],inactive: -22.2%
24,CC1(CBr)Cn2c(nc3ccccc3c2=O)S1 (stereo not given),inactive: 7.07%
25,O=C(OC1CN2CCC1CC2)c1ccc(Cl)cc1 (stereo not given),inactive: 2.05%

row,SMILES,inhibition
1,COc1cc(C(=O)NCC2(N3CCOCC3)CCCCC2)cc(Cl)c1OC(C)C,inactive: -7.06%
2,O=[As](O)(O)c1cccnc1,inactive: 2.11%
3,CS(=O)(=O)c1ccc(Cl)c(NC(=O)COC(=O)C(O)(c2ccccc2)c2ccccc2)c1,inactive: 9.51%
4,O=[As](O)(c1cccc(O)c1)c1cccc(O)c1,inactive: -15.6%
5,Cc1cccc(OCC(=O)OC2CN3CCC2CC3)c1 (stereo not given),inactive: 0.048%
6,Nc1cccc2c([As](=O)(O)O)cccc12,inactive: 1.01%
7,Cc1ccc(NCCc2c([N+](=O)[O-])cc([N+](=O)[O-])cc2[N+](=O)[O-])cc1,inactive: -2.23%
8,CCCOP(=S)(Nc1nc(N)cc(=O)[nH]1)OCCC,inactive: 6.08%
9,COc1cc(C2NCCC3(OCCO3)C2(C)C)cc(OC)c1OC (stereo not given),inactive: -1.28%
10,CCOP(=O)(Nc1cccc2ccccc12)OCC,inactive: 1.57%
11,O=P(Nc1nccs1)(Oc1ccccc1)Oc1ccccc1,inactive: 2.97%
12,CS(=O)(=O)c1cc([N+](=O)[O-])c2no[n+]([O-])c2c1,inactive: 10.2%
13,Nc1ccccc1[As](=O)(O)c1ccccc1,inactive: -7.02%
14,N#CCCN(C(=O)COC(=O)C(O)(c1ccccc1)c1ccccc1)c1ccc(F)cc1,inactive: 4.95%
15,CN(C(=O)Cc1ccccc1)[C@@H]1CC[C@]2(CCCO2)C[C@H]1N1CCCC1,inactive: -5.35%
16,CCOP1(=S)c2c(C)nn(CCC#N)c2N=C(c2ccc(F)cc2)N1C (stereo not given),inactive: -6.14%
17,CN(C)C(=O)c1cc([N+](=O)[O-])cc2c1-c1c(cc([N+](=O)[O-])cc1[N+](=O)[O-])C2=O,inactive: -35.8%
18,O=[N+]([O-])c1ccc2c(c1)nnn2O,inactive: -2.24%
19,CN(C(=O)Cc1ccc(Cl)c(Cl)c1)[C@H]1CC[C@@]2(CCCO2)C[C@@H]1N1CCCC1,inactive: -8.25%
20,C[As](=O)(O)c1cccc(C(=O)O)c1,inactive: -0.471%
21,O=[As](O)(c1ccc(O)cc1)c1ccccc1O,inactive: -0.236%
22,COc1cc(C(=O)NCC2(N3CCOCC3)CCCCC2)ccc1OCC(C)C,inactive: -2.2%
23,O=[N+]([O-])c1ccc(-c2cc([N+](=O)[O-])c(O)c([N+](=O)[O-])c2)cc1,inactive: 8.5%
24,Cc1ccc(OP(=O)(Nc2ccc([N+](=O)[O-])cn2)Oc2ccc(C)cc2)cc1,inactive: 4.6%
25,Cc1ccc2nc3c(c(C)c2c1)CC(C(Cl)Cl)S3 (stereo not given),inactive: 0.324%

row,SMILES,inhibition
1,ClCCSc1nnc(-c2cccnc2)o1,inactive: 10.5%
2,CC(C)c1ccc(OP(=O)(Nc2ccccn2)Oc2ccccc2F)cc1 (stereo not given),inactive: -9.3%
3,COC(=O)C1(C)COP(=O)(N2CCCCCC2)OC1 (stereo not given),inactive: -4.63%
4,O=C(OC1CN2CCC1CC2)c1cccc2[nH]cnc12 (stereo not given),inactive: 1.74%
5,CCN(CC)C(=S)SC(NC=O)C(Cl)(Cl)Cl (stereo not given),inactive: 3.39%
6,CC(C)NC(=O)NP(=O)(Oc1ccccc1)Oc1ccccc1,inactive: -4.21%
7,O=[N+]([O-])c1cc([N+](=O)[O-])c(-c2ccn[nH]2)s1,inactive: 0.38%
8,Cc1c2c(nc3ccccc13)SC(C(Cl)Cl)C2 (stereo not given),inactive: 6.17%
9,O=C(OC1CN2CCC1CC2)C12CC3CC(CC(C3)C1)C2 (stereo not given),inactive: 2.8%
10,Cc1cc(=O)[nH]c(N[N+](=O)[O-])n1,inactive: 2.53%
11,O=P1(N(CCCl)CCCl)Nc2ccccc2N1,inactive: -2.25%
12,O=P1(N(CCCl)CCCl)OCCCN1CCCl (stereo not given),inactive: 6.93%
13,COc1ccc2nc(NP(=O)(c3ccccc3)c3ccccc3)sc2c1,inactive: 3.06%
14,COc1cc(I)ccc1[As](=O)(O)O,inactive: 9.36%
15,O=[N+]([O-])c1cc(Oc2ccc([N+](=O)[O-])cc2C(F)(F)F)cc([N+](=O)[O-])c1,inactive: -8%
16,COc1ccc(N/C(=N/P(=O)(N2CCOCC2)N2CCOCC2)N2CCOCC2)cc1,inactive: 0.683%
17,COC(=O)C1(C)COP(=O)(N2CCCC2)OC1 (stereo not given),inactive: 4.79%
18,O=C(COc1ccccc1)OC1CN2CCC1CC2 (stereo not given),inactive: 5.31%
19,O=C(Nc1ccncc1[N+](=O)[O-])c1ccc([N+](=O)[O-])cc1[N+](=O)[O-],inactive: -4.12%
20,O=C(OC1CN2CCC1CC2)c1cccc([N+](=O)[O-])c1 (stereo not given),inactive: -3.56%
21,CSc1ccc(Nc2c([N+](=O)[O-])cc([N+](=O)[O-])cc2[N+](=O)[O-])cc1,inactive: -14.2%
22,CCOC(=O)c1ccc(NC(=O)C(C)(CCl)SC)cc1 (stereo not given),inactive: 3.07%
23,O=C(O)C(O)c1ccc(N(CCCl)CCCl)cc1 (stereo not given),inactive: -3.98%
24,CCOC(=O)Nc1ccc([As](=O)(O)O)c(O)c1,inactive: 2.66%
25,CC1CCNP(=O)(N(CCCl)CCCl)O1 (stereo not given),inactive: 26.7%

row,SMILES,inhibition
1,CCCCOc1ccc(C(=O)NCC2(N3CCCCC3)CCCCC2)cc1OC,inactive: 15.3%
2,Cc1cc(SC(NC(=O)c2ccccc2)C(Cl)(Cl)Cl)nc(C(C)C)n1 (stereo not given),inactive: -2.47%
3,Cc1cc(SC(NC=O)C(Cl)(Cl)Cl)ncn1 (stereo not given),inactive: 0.503%
4,O=P(Nc1ccccn1)(c1cccc2ccccc12)c1cccc2ccccc12,inactive: 12.2%
5,O=[N+]([O-])c1ccc(Nc2ccc(Oc3ccc([N+](=O)[O-])cc3[N+](=O)[O-])cc2)c([N+](=O)[O-])c1,inactive: -3.41%
6,O=P1(N(CCCl)CCCl)OCCCS1 (stereo not given),inactive: 0.625%
7,O=C(Nc1cc([As](=O)(O)O)ccc1O)c1ccccc1,inactive: 0.043%
8,O=[N+]([O-])c1ncn(CCn2ncnc2[N+](=O)[O-])n1,inactive: 11.6%
9,CC(C)(C)C(=O)NC(Sc1ccncn1)C(Cl)(Cl)Cl (stereo not given),inactive: -0.755%
10,O=C(O)CNc1ccc([As](=O)(O)O)cc1,inactive: -1.18%
11,O=[N+]([O-])c1cccc(NC2=NCC(CBr)S2)c1 (stereo not given),inactive: -0.839%
12,COC(=O)C1(C)COP(=O)(Nc2ccccc2)OC1 (stereo not given),inactive: -8.81%
13,COc1ccc(C2=NCC(CBr)S2)cc1 (stereo not given),inactive: 6.04%
14,Cc1ccc(NP(=O)(Oc2ccccc2)Oc2ccccc2)nc1,inactive: -8.88%
15,O=[N+]([O-])c1cc([N+](=O)[O-])c(CCNc2ccccc2)c([N+](=O)[O-])c1,inactive: 4.53%
16,CC(=O)N1C2C3N(C(C)=O)C1C1N(C(C)=O)C(C(N1C(C)=O)N3C(C)=O)N2C(C)=O,inactive: 7.62%
17,O=[N+]([O-])c1cccc2n[nH]nc12,inactive: -5.89%
18,CCN(/C(=N/P(=O)(N1CCOCC1)N1CCOCC1)N1CCOCC1)c1ccc(OC)cc1,inactive: -0.929%
19,Nc1ccc([As](=O)(O)c2ccc(N)cc2)cc1,inactive: 17.6%
20,C[N+]1=C2C=CC=CC=C2SC12C([N+](=O)[O-])=CC([N+](=O)[O-])=C[C-]2[N+](=O)[O-] (stereo not given),inactive: -11.9%
21,CC1CCN(C(=O)Oc2c(Cl)cc(Cl)c3cccnc23)CC1,inactive: -2.89%
22,CC(C)=N/N=C(\N)N[N+](=O)[O-],inactive: 3.95%
23,CC(C)c1nc(Nc2ccccc2)n(P(=O)(N(C)C)N(C)C)n1,inactive: -3.5%
24,CN(C)C(=O)OCCc1n(C)cc[n+]1C,inactive: 0.443%
25,CN(C(=O)Cc1ccc(Cl)c(Cl)c1)[C@H]1CCCC[C@H]1N1CCCC1,inactive: -8.36%
